Read-outs that look alike come from different tables or passages of the source.
Assays:
α4β1 = α4β1 (Homo sapiens, UniProt P05556+P13612); assay: Ramos Cell Adhesion Assay (α4β1 Mediated Adhesion/VCAM-1); conditions: read-out: α4β1 IC50, Ramos cells on recombinant hVCAM-1
human α4β7 = human α4β7 (Homo sapiens, UniProt P13612+P26010); assay: α4β7-K562 Cell Adhesion Assay (α4β7 Mediated Adhesion/VCAM-1); conditions: read-out: α4β7 IC50, K562 cells expressing human α4β7 on recombinant hVCAM-1

Chains of the proteins cited; added tags and fusions are not shown. Residues count along the entry.
UniProt P05556, 21-798 limits assumed: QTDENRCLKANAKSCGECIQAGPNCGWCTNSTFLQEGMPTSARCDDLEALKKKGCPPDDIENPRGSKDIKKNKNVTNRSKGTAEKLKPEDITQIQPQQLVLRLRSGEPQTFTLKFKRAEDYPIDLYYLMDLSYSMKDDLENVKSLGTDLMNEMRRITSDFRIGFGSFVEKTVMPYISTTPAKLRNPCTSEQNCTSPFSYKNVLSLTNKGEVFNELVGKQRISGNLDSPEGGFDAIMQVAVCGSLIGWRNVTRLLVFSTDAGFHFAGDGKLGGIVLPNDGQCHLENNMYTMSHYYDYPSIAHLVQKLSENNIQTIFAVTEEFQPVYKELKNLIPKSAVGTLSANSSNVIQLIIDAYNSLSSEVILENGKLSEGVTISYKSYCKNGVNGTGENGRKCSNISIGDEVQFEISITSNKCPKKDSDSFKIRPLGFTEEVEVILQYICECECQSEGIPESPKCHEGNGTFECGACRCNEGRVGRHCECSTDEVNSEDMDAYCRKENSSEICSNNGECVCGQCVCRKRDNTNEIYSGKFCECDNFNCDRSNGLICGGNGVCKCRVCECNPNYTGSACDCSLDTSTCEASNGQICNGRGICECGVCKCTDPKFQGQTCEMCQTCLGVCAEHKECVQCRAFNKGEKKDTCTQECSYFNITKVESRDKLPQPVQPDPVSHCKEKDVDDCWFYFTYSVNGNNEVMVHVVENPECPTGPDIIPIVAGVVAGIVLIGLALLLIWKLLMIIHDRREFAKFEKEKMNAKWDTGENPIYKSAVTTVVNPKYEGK
UniProt P13612, 34-1032 limits assumed: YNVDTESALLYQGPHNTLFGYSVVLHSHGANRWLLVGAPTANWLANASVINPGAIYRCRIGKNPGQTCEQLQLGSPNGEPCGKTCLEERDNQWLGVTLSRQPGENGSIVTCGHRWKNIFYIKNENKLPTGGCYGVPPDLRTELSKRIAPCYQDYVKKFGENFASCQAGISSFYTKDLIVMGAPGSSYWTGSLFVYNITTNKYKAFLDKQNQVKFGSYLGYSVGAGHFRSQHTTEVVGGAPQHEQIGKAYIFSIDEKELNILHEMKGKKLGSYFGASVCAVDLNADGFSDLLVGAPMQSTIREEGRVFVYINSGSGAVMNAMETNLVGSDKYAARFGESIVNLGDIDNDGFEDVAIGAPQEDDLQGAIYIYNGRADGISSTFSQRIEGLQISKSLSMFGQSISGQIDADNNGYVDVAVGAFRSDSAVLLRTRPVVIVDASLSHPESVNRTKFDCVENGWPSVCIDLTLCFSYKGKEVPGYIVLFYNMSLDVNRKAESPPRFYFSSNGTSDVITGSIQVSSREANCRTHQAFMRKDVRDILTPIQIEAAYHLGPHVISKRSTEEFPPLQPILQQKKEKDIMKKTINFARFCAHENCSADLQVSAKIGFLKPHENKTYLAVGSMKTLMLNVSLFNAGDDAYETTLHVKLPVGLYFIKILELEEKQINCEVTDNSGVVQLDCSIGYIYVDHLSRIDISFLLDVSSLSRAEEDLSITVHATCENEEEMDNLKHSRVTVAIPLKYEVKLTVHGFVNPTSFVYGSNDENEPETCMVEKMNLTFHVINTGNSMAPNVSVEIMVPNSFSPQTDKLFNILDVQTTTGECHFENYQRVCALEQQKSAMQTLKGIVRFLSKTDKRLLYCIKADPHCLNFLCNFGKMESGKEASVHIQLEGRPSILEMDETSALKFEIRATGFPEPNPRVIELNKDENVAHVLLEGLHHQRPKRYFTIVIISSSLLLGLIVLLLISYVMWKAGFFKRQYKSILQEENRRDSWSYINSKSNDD
UniProt P26010, 20-798 limits assumed: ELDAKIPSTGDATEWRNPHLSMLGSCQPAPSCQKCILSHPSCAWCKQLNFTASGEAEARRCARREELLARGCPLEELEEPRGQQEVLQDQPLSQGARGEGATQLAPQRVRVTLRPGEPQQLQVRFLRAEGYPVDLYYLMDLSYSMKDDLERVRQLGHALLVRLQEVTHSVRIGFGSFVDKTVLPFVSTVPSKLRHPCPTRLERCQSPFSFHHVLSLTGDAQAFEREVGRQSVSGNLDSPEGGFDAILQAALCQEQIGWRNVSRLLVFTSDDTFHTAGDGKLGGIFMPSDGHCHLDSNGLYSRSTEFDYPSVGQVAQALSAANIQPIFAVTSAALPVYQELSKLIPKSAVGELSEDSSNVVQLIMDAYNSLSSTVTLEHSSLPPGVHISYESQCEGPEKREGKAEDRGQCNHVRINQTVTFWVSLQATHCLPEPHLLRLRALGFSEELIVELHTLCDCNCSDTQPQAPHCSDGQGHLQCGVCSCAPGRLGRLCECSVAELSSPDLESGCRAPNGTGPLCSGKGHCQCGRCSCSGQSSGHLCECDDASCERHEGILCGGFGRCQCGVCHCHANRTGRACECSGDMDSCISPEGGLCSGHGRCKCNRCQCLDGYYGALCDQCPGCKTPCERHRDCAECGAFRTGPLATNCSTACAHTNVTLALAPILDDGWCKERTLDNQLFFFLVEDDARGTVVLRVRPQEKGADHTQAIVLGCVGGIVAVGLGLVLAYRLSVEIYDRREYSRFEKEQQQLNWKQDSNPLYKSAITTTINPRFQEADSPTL

SMILES | IC50 (α4β1) | IC50 (human α4β7) | IC50 (α4β1; tested form: TFA) | IC50 (human α4β7; tested form: TFA)
COc1ccc(CCC(=O)N2C3CCC(CC3)C2C(=O)N[C@@H](Cc2ccc(NC(=O)c3c(Cl)cncc3Cl)cc2)C(=O)O)cc1 (stereo partly drawn) | 0.002 µM | 0.007 µM |  | 
O=C(Nc1ccc(C[C@H](NC(=O)C2C3CCC(CC3)N2C(=O)CCc2cccs2)C(=O)O)cc1)c1c(Cl)cncc1Cl (stereo partly drawn) | < 0.003 µM | 0.019 µM |  | 
O=C(Nc1ccc(C[C@H](NC(=O)C2C3CCC(CC3)N2C(=O)CCc2ccoc2)C(=O)O)cc1)c1c(Cl)cncc1Cl (stereo partly drawn) |  | 0.017 µM |  | 
CC(C)(C)C(=O)N1C2CCC(CC2)C1C(=O)N[C@@H](Cc1ccc(NC(=O)c2c(Cl)cncc2Cl)cc1)C(=O)O (stereo partly drawn) | 0.038 µM | 0.119 µM |  | 
COc1ccc(OC)c(CC(=O)N2C3CCC(CC3)C2C(=O)N[C@@H](Cc2ccc(NC(=O)c3c(Cl)cncc3Cl)cc2)C(=O)O)c1 (stereo partly drawn) |  |  | 0.116 µM | 0.131 µM

Source: US20060223846A1, “Aza-bridged-bicyclic amino acid derivatives as alpha4 integrin antagonists” (priority 2005, published 2006)
